Assay results from US20220339596A1, “METHOD FOR PRODUCING RADICALS, METHOD FOR S[…], AND CANCER TREATMENT DRUG” (priority 2019, published 2022).
Read-outs that look alike come from different tables or passages of the source.

Legend:
[1] = 14.5 mmol/L sodium chlorite
[2] = for Chlorine dioxide radicals / Chlorite ions: 14.5 mmol/L sodium chlorite
[3] = 7.25 mmol/L sodium chlorite, pH 7.0, 455 nm LED 157 mW/cm^2 40 minutes
[4] = pH 7.0, 455 nm LED 157 mW/cm^2 40 minutes, n=6
[5] = pH 7.0, photoirradiation not performed
[6] = pH 7.5, 455 nm LED 157 mW/cm^2 40 minutes, n=6
[7] = pH 8.0, 455 nm LED 157 mW/cm^2 40 minutes, n=6

sodium chlorite
highest ClO2 radical concentration ([1]; 455 nm LED 300 mW/cm^2, 20 minutes from start of irradiation): about 0.7 mmol/L | oxygen concentration ([1]; 455 nm LED 300 mW/cm^2, approximately 20 minutes): about 0.6 mmol/L | molar concentration of chlorine dioxide radicals [2, 3]: 375 µmol/L | molar concentration of chlorite ions [2, 3]: 350 mmol/L | Chlorine dioxide radicals [2, 4]: 700 to 800 µmol/L | Chlorite ions [2, 4]: 7.5 to 8.5 mmol/L | Chlorine dioxide radicals [2, 5]: 0 µmol/L | Chlorite ions [2, 5]: 14.5 mmol/L | Chlorine dioxide radicals [2, 6]: 500 to 600 µmol/L | Chlorite ions [2, 6]: 9.5 to 10.5 mmol/L | Chlorine dioxide radicals [2, 7]: 350 to 450 µmol/L | Chlorite ions [2, 7]: 11.0 to 12.0 mmol/L
